The source of these data is patent publication US7745147 (VIRANATIVE, dated 2010).

The assay deals with T1, human interferon alpha 8 (human, UniProt P32881 24-189).
T1 construct: One entry serves both the natural leukocyte protein and the bought recombinant protein; also called α8; IFN-α8
The assay can be described thus: immunoaffinity column loaded with crude leukocyte interferon alpha; RP-HPLC of eluate.

B1: Monoclonal antibody 3-A3-2 (antibody, mouse IgG1, V domains shown)
VH: QVQLQESGTVLARPGASVKMSCKASGYSFTTYWMHWVKQRPGQGLEWIGVIYPGNGDTTYNQKFKDKAKLTAVTSANTAYMELSSLTNEDSAVYFCTRNYKYDYYTMDYWGQGTTVTVSS
VL: DIVLTQSPASLAVSLGQRATISCRASKSVSTSGHSYMHWYQQKPGQTPKLLIYLASNLESGVPARFSGSGSGTDFTLNIHPVEEEDAATYYCQHSGELPFTFGSGTKLEIK
notes: Murine IgG1/kappa from hybridoma 3-A3-2 (ECACC 05030201); also called monoclonal 3-A3-2; 3A32 Ab
In the case of B1, the binding result is “binds”.
